This assay addresses Sodium-dependent noradrenaline transporter (Homo sapiens, UniProt P23975). Briefly: Inhibition of recombinant human norepinephrine transporter assessed as reduction in [3H]-NA reuptake.

The chains behind the UniProt entries cited, without tags or fusion partners.
UniProt P23975, whole entry: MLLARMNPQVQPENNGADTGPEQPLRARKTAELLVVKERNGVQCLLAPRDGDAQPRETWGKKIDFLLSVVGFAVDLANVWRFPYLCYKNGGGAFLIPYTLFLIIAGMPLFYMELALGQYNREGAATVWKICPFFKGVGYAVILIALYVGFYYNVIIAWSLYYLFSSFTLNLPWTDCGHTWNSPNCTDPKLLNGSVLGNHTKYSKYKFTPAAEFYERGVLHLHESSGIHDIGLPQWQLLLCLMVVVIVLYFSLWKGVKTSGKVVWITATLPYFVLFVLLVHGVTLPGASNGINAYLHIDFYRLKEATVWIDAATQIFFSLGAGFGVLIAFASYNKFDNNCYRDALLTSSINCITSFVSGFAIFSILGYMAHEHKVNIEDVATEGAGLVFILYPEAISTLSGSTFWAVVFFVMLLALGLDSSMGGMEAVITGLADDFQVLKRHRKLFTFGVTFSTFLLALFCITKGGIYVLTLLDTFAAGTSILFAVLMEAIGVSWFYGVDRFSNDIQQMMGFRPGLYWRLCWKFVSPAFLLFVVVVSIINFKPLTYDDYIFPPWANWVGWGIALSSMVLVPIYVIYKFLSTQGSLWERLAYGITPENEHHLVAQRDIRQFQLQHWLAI

pIC50: −log10 of the molar value.

With `CNC[C@]1(c2ccc3ccccc3c2)CC[C@@](C)(O)CC1`, the negative-log IC50 (pIC50) (in general, the IC50 on a negative log10 scale, so that one unit is a factor of ten) was 7.48.

Values taken from ChEMBL document CHEMBL3769327, “Emerging targets and new small molecule therapies in Parkinson's disease treatment” (Bioorg Med Chem, 2016).
